From patent publication US20260242485A1 (LEPU BIOPHARMA, published 2026)

The chains behind the UniProt entries cited, without tags or fusion partners. Residues count along the entry.
UniProt P51654, 25-554 limits assumed: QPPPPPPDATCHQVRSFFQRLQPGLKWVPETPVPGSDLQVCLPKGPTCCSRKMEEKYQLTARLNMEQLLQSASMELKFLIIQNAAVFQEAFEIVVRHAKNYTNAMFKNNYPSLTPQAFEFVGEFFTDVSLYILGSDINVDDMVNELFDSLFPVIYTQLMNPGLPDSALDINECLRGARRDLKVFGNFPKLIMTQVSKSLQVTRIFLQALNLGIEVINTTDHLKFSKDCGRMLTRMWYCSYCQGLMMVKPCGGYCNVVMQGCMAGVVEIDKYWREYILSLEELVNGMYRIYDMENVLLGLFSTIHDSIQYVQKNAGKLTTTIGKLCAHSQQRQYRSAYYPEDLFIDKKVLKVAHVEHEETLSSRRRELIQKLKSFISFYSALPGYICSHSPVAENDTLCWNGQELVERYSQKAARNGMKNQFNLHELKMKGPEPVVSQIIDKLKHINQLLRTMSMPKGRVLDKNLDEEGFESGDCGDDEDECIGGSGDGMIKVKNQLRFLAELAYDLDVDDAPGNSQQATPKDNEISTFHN

Molecular target: T1, human GPC3 on HepG2 cells (human, UniProt P51654 25-554)
T1 construct: whole, on cells; also called GPC3-positive HepG2 cells
Experiment: flow cytometry, HepG2 cells (GPC3 positive), geometric mean

Binder	EC50 (read off the curve) [nM]
GPC3-P2C47-hIgG1LALAPG (bispecific antibody) heavy: QVQLVQSGAEVKKPGASVKVSCKASGYTFTDYEMHWVRQAPGQGLEWMGAIHPGSGGTAYNQKFKGRVTMTRDTSTSTVYMELSSLRSEDTAVYYCARYYSYAYWGQGTLVTVSSASTKGPSVFPLAPSSKSTSGGTAALGCLVKDYFPEPVTVSWNSGALTSGVHTFPAVLQSSGLYSLSSVVTVPSSSLGTQTYICNVNHKPSNTKVDKKVEPKSCDKTHTCPPCPAPEAAGGPSVFLFPPKPKDTLMISRTPEVTCVVVDVSHEDPEVKFNWYVDGVEVHNAKTKPREEQYNSTYRVVSVLTVLHQDWLNGKEYKCKVSNKALGAPIEKTISKAKGQPREPQVYTLPPSREEMTKNQVSLTCLVKGFYPSDIAVEWESNGQPENNYKTTPPVLDSDGSFFLYSKLTVDKSRWQQGNVFSCSVMHEALHNHYTQKSLSLSPGKGGGGSGGGGSGGGGSGGGGSQVQLVQSGAEVKKPGESLKVSCKASGYTFTSYYMHWVRQAPGQGLEWMGAIEPMYGSTSYAQKFQGRVTMTRDTSTSTVYMELSSLRSEDTAVYYCARGSAYYYDFADYWGQGTLVTVSSGGGGSGGGGSGGGGSSYVLTQPSSVSVAPGQTATISCGGHNIGSKNVHWYQQRPGQSPVLVIYQDNKRPSGIPERFSGSNSGNTATLTISGTQAMDEADYYCQVWDNYSVLFGGGTKLTVL light: DIVMTQTPLSLSVTPGQPASISCRSSQSLVHSNGNTYLQWYLQKPGQSPQLLIYKVSNRFSGVPDRFSGSGSGTDFTLKISRVEAEDVGVYYCFQSIHVPYTFGGGTKLEIKRTVAAPSVFIFPPSDEQLKSGTASVVCLLNNFYPREAKVQWKVDNALQSGNSQESVTEQDSKDSTYSLSSTLTLSKADYEKHKVYACEVTHQGLSSPVTKSFNRGEC	~0.3
GPC3-45H6E8-hIgG1LALAPG (bispecific antibody) heavy: QVQLVQSGAEVKKPGASVKVSCKASGYTFTDYEMHWVRQAPGQGLEWMGAIHPGSGGTAYNQKFKGRVTMTRDTSTSTVYMELSSLRSEDTAVYYCARYYSYAYWGQGTLVTVSSASTKGPSVFPLAPSSKSTSGGTAALGCLVKDYFPEPVTVSWNSGALTSGVHTFPAVLQSSGLYSLSSVVTVPSSSLGTQTYICNVNHKPSNTKVDKKVEPKSCDKTHTCPPCPAPEAAGGPSVFLFPPKPKDTLMISRTPEVTCVVVDVSHEDPEVKFNWYVDGVEVHNAKTKPREEQYNSTYRVVSVLTVLHQDWLNGKEYKCKVSNKALGAPIEKTISKAKGQPREPQVYTLPPSREEMTKNQVSLTCLVKGFYPSDIAVEWESNGQPENNYKTTPPVLDSDGSFFLYSKLTVDKSRWQQGNVFSCSVMHEALHNHYTQKSLSLSPGKGGGGSGGGGSGGGGSGGGGSEVQLQQSGAELVRSGASVKLSCTASGFNIKDYYMQWVKQRPEQGLEWIGWIDPENGDTEYAPKFQGKATMTADTSSNTAYLQLSSLTSEDTAVYYCTTGGNYVDWGQGTTLTVSSGGGGSGGGGSGGGGSDIVMTQSQKFMSTSVGDRVSITCKASQNVGTAVAWYQQKPGQSPKLLIYSASNRYTGVPDRFTGSGSGTDFTLTISNMQSEDLADYFCQQYSSYPLLTFGAGTNLELK light: DIVMTQTPLSLSVTPGQPASISCRSSQSLVHSNGNTYLQWYLQKPGQSPQLLIYKVSNRFSGVPDRFSGSGSGTDFTLKISRVEAEDVGVYYCFQSIHVPYTFGGGTKLEIKRTVAAPSVFIFPPSDEQLKSGTASVVCLLNNFYPREAKVQWKVDNALQSGNSQESVTEQDSKDSTYSLSSTLTLSKADYEKHKVYACEVTHQGLSSPVTKSFNRGEC	~0.3
